In US11986529B2, “Pharmaceutical compositions and related methods of delivery” (priority 2008, dated 2024):

Assay: Formulated cargo versus cargo given concomitantly with mock formulation, rat jejunum
Settings: AUC of cargo in basic formulation versus cargo in aqueous solution given concomitantly with mock formulation; jejunum of non-anesthetized rats

Formulated versus unformulated (fold activity): 1.7 fold
Substance: Dextran
